Rows were chosen to be rich in hits. Some 3.6% of all compounds tested hit in one or more screens of this group.
Rango release inh: qHTS Assay for Inhibitors of RanGTP induced Rango (Ran-regulated importin-beta cargo) - Importin beta complex dissociation | Potency, µM (titrated, usually from 46.1 µM), for inactives: at the top dose activity change, negative = inhibition | Snurportin-1 (Homo sapiens) + GTP-binding nuclear protein Ran (Homo sapiens) + Importin … | Biochemical FRET Rango-importin beta, RanGTP-induced dissociation | 340,000 tested, 0.071% active; calls by dose curve; further: potency means the concentration at half of the fitted maximal effect; % of control where 0% means no effect; nearly all actives have a fitted effect of over 45% in size
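Two FRET readings bracket the reaction: one 5 min after compound meets Rango–importin beta, another 45 min after RanGTP-RCC1 (0.6 uM Ran, 0.2 uM RCC1, 2 mM GTP) is added. Only the second defines inhibition.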
PI5P4K alpha inh: qHTS for Inhibitors of phosphatidylinositol 5-phosphate 4-kinase (PI5P4K) | max response, % | AID 652105, 2013 | 330,000 tested, 1.2% active | PI5P4Kalpha enzyme, ADP-Glo luminescence, 60 min; stronger effect = lower value | Phosphatidylinositol 5-phosphate 4-kinase type-2 alpha (Homo sapiens), P48426; active means max response of -50% or lower; inconclusive means between -30% and -50%; inactive means -30% or higher; further: value at the top dose of about 77 µM; on the % scale 0 is the no-effect control and ±100 the full control effect
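Compounds were pin-transferred onto PI5P4Kalpha and substrate in HEPES pH 7.4 buffer with EGTA, CHAPS and 5% DMSO. ATP (5 microM final) started the reaction, which ran 60 minutes at room temperature before ADP-Glo detection.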
Rango-impB inh: qHTS Assay for Inhibitors of Rango (Ran-regulated importin-beta cargo) - Importin beta complex formation; 340,000 tested, 0.031% active; Potency, µM (series often up to 92.2 µM), for the others: at the top dose inhibition of complex formation; AID 540263, 2011; Rango CFP/YFP FRET sensor + importin beta, 45 min; calls by dose curve;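 further: potency means the concentration at half of the fitted maximal effect; 0% = DMSO wells and 100% = buffer wells lacking importin beta; nearly all actives have a fitted effect of over 15% in size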
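Inhibition scored from the CFP 486 nm/YFP 530 nm FRET ratio 45 min after adding 0.125 microM importin beta to 50 nM Rango biosensor preincubated 5 min with compound (room temperature, PBS with DTT, Tween-20, BSA). No-importin wells as positive control.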
PLK1 PBD block: qHTS for Inhibitors of PLK1-PDB (polo-like kinase 1 - polo-box domain): Primary Screen | Serine/threonine-protein kinase PLK1 (Homo sapiens), P53350 | Plk1 PBD binding of FITC phosphopeptide, fluorescence polarization | Potency, µM, for the others: max response, negative = inhibition, actives largely listed as inhibitors | 360,000 tested, 2.8% active; further: potency means the concentration at half of the fitted maximal effect; series mostly up to about 57 µM; on the % scale 0 is the no-effect control and ±100 the full control effect; nearly all actives have a fitted effect of over 65% in size
GCN5L2 inh: qHTS Assay for Inhibitors of GCN5L2 | Histone acetyltransferase KAT2A (Homo sapiens), Q92830 | GCN5L2 HAT assay, ThioGlo1 CoA-SH fluorescence | Potency, µM (top dose mostly 58.9 µM), for the others: top-dose activity change, negative = inhibition, usual class: inhibitors | 390,000 tested, 0.21% active | AID 504327, 2011; further: potency means the concentration at half of the fitted maximal effect; on the % scale 0 is the no-effect control and ±100 the full control effect
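Enzyme at 20nM final was mixed with library compounds for 15 min at room temperature. Peptide H3(1-25) at 75uM, acetyl-CoA at 70uM and ThioGlo1 at 50uM were then added. Plates were read immediately and after 20 min (Ex340nm/Em540nm).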
VDR inhibitor: Inhibitors of the vitamin D receptor (VDR): qHTS; 400,000 tested, 0.93% active; VDR-SRC2-3 peptide fluorescence polarization, 2 h; Vitamin D3 receptor (Homo sapiens), P11473; Potency, µM, inactives show max response, negative = inhibition, hits mostly inhibitors; further: potency means the concentration at half of the fitted maximal effect; on the % scale 0 is the no-effect control and ±100 the full control effect
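The screen uses fluorescence polarization to detect compounds that interfere with recruitment of the SRC2-3 coactivator peptide to VDR; plates are read after 2 h at room temperature.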
Starred values were filed as active, the others as inactive; ? = inconclusive; . = no result given. Unless noted, the call rests on the fitted dose curve; in most records, active means well fitted curve in the direction sought with a large enough effect; inconclusive means small, poorly fitted or top-dose-only effect, or another doubt; inactive means no such curve, though single readings can be large; an effect the other way counts as inactive or inconclusive.

Amino acid sequences for entries named in this document (tags omitted).
Serine/threonine-protein kinase PLK1 (Homo sapiens), P53350, UniProt P53350, whole entry, looked up: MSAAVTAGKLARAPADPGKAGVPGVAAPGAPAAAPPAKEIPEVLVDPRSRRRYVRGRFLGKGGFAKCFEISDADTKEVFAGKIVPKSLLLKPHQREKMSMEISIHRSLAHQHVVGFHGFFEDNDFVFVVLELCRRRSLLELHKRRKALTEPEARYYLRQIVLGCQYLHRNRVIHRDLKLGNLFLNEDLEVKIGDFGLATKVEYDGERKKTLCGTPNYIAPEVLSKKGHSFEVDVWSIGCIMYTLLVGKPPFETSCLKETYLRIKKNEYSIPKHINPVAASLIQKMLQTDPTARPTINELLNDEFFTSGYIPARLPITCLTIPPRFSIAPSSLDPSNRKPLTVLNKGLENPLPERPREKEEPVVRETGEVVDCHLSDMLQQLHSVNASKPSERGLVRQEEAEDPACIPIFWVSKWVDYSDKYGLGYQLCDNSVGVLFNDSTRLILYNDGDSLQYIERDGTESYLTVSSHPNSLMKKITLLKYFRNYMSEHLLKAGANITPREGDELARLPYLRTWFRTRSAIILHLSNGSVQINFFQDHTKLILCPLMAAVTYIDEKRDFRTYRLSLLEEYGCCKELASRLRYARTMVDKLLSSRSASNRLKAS
Histone acetyltransferase KAT2A (Homo sapiens), Q92830, UniProt Q92830, whole entry, looked up: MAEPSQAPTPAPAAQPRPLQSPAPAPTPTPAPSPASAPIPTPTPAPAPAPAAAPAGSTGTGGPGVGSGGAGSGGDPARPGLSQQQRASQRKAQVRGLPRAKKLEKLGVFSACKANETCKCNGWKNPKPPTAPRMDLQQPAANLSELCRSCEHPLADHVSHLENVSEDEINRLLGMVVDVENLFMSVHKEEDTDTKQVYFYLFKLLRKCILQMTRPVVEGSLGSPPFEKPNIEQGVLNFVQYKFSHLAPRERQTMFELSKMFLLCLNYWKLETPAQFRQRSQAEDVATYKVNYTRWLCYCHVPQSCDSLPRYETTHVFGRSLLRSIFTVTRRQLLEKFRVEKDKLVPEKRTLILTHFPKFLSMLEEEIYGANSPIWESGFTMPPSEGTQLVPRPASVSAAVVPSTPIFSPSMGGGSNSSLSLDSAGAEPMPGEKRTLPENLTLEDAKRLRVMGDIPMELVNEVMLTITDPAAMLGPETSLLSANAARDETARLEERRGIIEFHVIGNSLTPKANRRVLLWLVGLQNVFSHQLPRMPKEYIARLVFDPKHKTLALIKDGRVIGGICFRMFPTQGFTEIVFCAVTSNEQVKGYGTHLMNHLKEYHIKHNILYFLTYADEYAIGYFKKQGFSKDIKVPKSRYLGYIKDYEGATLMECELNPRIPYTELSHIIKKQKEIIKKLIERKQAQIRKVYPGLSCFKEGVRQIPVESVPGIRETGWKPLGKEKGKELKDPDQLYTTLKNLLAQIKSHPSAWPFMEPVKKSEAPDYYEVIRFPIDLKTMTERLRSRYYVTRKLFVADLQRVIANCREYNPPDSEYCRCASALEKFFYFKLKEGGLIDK

Screens by letter – A = Rango release inh; B = PI5P4K alpha inh; C = Rango-impB inh; D = PLK1 PBD block; E = GCN5L2 inh; F = VDR inhibitor
SMILES: COC(=O)[C@@]1(Cc2ccc(F)cc2)[C@H]2c3cc(C(=O)N(C)C)n(CCc4ccccn4)c3C[C@H]2CN1C(=O)c1ccccc1
  A = -5% | B = -2 | C = 1% | D = 2% | E = -1% | F = 9%
SMILES: COC(=O)[C@@]1(Cc2ccc(F)cc2)[C@H]2c3cc(C(=O)N4CCCC4)n(CCc4ccccn4)c3C[C@H]2CN1C(=O)c1ccccc1
  A = -11% | B = -4 | C = -4% | D = 21µM* | E = -4% | F = -27%
SMILES: COc1ccc(-c2cccc3c2NC(=O)C3=O)cc1OC
  A = -24% | B = -2 | C = -2% | D = 27µM* | E = 1% | F = ?
SMILES: O=C(Oc1nsnc1N1CCOCC1)c1ccccc1
  A = -9% | B = . | C = -2% | D = 24µM* | E = -5% | F = -13%
SMILES: O=C(Oc1nsnc1N1CCOCC1)N1CCOCC1
  A = -11% | B = . | C = -2% | D = -9% | E = -12% | F = -5%
SMILES: CCCCn1c(C2CC(=O)N(c3ccc(OCC)cc3)C2)nc2ccccc21 (stereo not drawn)
  A = . | B = . | C = . | D = . | E = 0% | F = 12%
SMILES: CCC1=NC(c2ccc(OC)cc2)N(O)C1(C)C (stereo not drawn)
  A = -12% | B = 3 | C = 3% | D = -1% | E = 0% | F = 8%
SMILES: CCC1=NC(c2ccc(OC)c(OC)c2)N(O)C1(C)C (stereo not drawn)
  A = 1% | B = -1 | C = -4% | D = 30µM* | E = 4% | F = -19%
SMILES: CCOC(=O)CSc1nc2sc3c(c2c(=O)n1-c1ccccc1)CCN(C(C)C)C3
  A = 18µM* | B = 0 | C = ? | D = -26% | E = 5% | F = 20%
SMILES: CCCc1cc2c(=O)c(-c3nc4ccccc4s3)c(COCC(=O)O)oc2cc1O
  A = ? | B = -74* | C = ? | D = -24% | E = -18% | F = 2%
SMILES: O=C(COC(=O)/C=C/c1ccc(Cl)cc1)Nc1cccc(S(=O)(=O)NC2=NCCCCC2)c1
  A = 14% | B = 1 | C = 3% | D = -4% | E = -7% | F = 21%
SMILES: O=C(COC(=O)c1ccccc1)Nc1cccc(S(=O)(=O)NC2=NCCCCC2)c1
  A = 1% | B = -8 | C = -1% | D = 27µM* | E = 0% | F = -22%
SMILES: O=C(COC(=O)/C=C/c1ccc(Cl)cc1Cl)Nc1cccc(S(=O)(=O)NC2=NCCC2)c1
  A = . | B = -75* | C = . | D = 2% | E = . | F = .
SMILES: NC(=O)Nc1ccc(C(=O)OCC(=O)Nc2cccc(S(=O)(=O)NC3=NCCCCC3)c2)cc1
  A = -5% | B = 1 | C = 0% | D = -4% | E = ? | F = -12%
SMILES: CCCCC(=O)OCC(=O)Nc1cccc(S(=O)(=O)NC2=NCCCCC2)c1
  A = 0% | B = -18 | C = 2% | D = 24µM* | E = 1% | F = -8%
SMILES: CCCCCC(=O)Nc1cccc(S(=O)(=O)NC2=NCCCCC2)c1
  A = 17% | B = -4 | C = 4% | D = -16% | E = -5% | F = -20%
SMILES: C=C1CCC2C(CC2(C)C)C(=C)CC/C1=N/O (stereo not drawn)
  A = . | B = . | C = . | D = . | E = -5% | F = -9%
SMILES: COc1ccc(/C=C2\C(=O)NC(=S)N2C(=O)c2ccc(F)cc2)cc1
  A = ? | B = -63* | C = ? | D = 43% | E = 38% | F = 4%
SMILES: Cc1nnc(SCC(=O)N(CC(C)C)C2CCS(=O)(=O)C2)n1N (stereo not drawn)
  A = -13% | B = -8 | C = -2% | D = 4% | E = 2% | F = 3%
SMILES: CC(C)CN(C(=O)CSc1nnc2c(Cl)cc(C(F)(F)F)cn12)C1CCS(=O)(=O)C1 (stereo not drawn)
  A = 1% | B = -6 | C = 1% | D = 27µM* | E = -6% | F = 11%
SMILES: O=C(O)c1cnc2ccccc2n1
  A = 0% | B = . | C = 4% | D = 27µM* | E = -4% | F = ?
SMILES: CN(Cc1ccccc1)c1ncnc2ccc(Br)cc12
  A = 16% | B = ? | C = 1% | D = 2.7µM* | E = 0% | F = -17%
SMILES: N#C/C(=C\c1c(Cl)cccc1Cl)c1nc2ccccc2o1
  A = 17% | B = 4 | C = -4% | D = 0.42µM* | E = 21% | F = -28%
SMILES: Cc1[nH]n(C(N)=S)c(=O)c1N=Nc1ccccc1C(F)(F)F
  A = 7% | B = -6 | C = -3% | D = 24µM* | E = 6% | F = -8%
SMILES: Cc1ccccc1N=Nc1c(C)[nH]n(C(N)=S)c1=O
  A = 0% | B = -25 | C = 2% | D = ? | E = -4% | F = -6%

Sorted by number of heavy atoms (rising): 3 of the compounds above
Screens by letter – A = Rango release inh; B = PI5P4K alpha inh; C = Rango-impB inh; D = PLK1 PBD block; E = GCN5L2 inh; F = VDR inhibitor
SMILES: Cc1ccccc1N=Nc1c(C)[nH]n(C(N)=S)c1=O
  A = 0% | B = -25 | C = 2% | D = ? | E = -4% | F = -6%
SMILES: CCCCn1c(C2CC(=O)N(c3ccc(OCC)cc3)C2)nc2ccccc21 (stereo not drawn)
  A = . | B = . | C = . | D = . | E = 0% | F = 12%
SMILES: CCOC(=O)CSc1nc2sc3c(c2c(=O)n1-c1ccccc1)CCN(C(C)C)C3
  A = 18µM* | B = 0 | C = ? | D = -26% | E = 5% | F = 20%

Next compounds follow.
Screens by letter – A = Rango release inh; B = PI5P4K alpha inh; C = Rango-impB inh; D = PLK1 PBD block; E = GCN5L2 inh; F = VDR inhibitor
SMILES: CC(=O)c1ccc(-n2nnnc2SCC(=O)NC2CCCCC2)cc1
  A = -8% | B = -2 | C = -2% | D = ? | E = -8% | F = -8%
SMILES: O=C(CSc1nnnn1-c1ccc(F)cc1)NC1CCCCC1
  A = 1% | B = -4 | C = 1% | D = 27µM* | E = -18% | F = ?
SMILES: O=C(CC1(O)C(=O)N(CCc2ccccc2)c2ccc(Br)cc21)c1ccc(F)cc1 (stereo not drawn)
  A = . | B = . | C = . | D = . | E = -18% | F = -1%
SMILES: CCN(CC)C(=O)CSc1nc2ccsc2c(=O)n1CCCC(=O)NCCc1ccc(S(N)(=O)=O)cc1
  A = -6% | B = -26 | C = ? | D = 3.8µM* | E = -1% | F = ?
SMILES: O=C(/C=C/c1ccc(Br)o1)Nc1nccs1
  A = -19% | B = ? | C = ? | D = 21µM* | E = -3% | F = -9%
SMILES: O=C(Nc1nccs1)c1ccc(Br)o1
  A = -15% | B = . | C = -1% | D = -2% | E = -4% | F = 9%
SMILES: O=C(/C=C/c1ccc(Br)o1)NCc1ccccc1
  A = -10% | B = -9 | C = ? | D = ? | E = -28% | F = 89µM*
SMILES: CC(C)NC(=O)CN1C(=O)CSc2ccc(S(=O)(=O)N3CCCC3)cc21
  A = ? | B = -3 | C = 1% | D = 24µM* | E = -1% | F = -15%
SMILES: O=C(CN1C(=O)CSc2ccc(S(=O)(=O)N3CCCCC3)cc21)NCc1cccnc1
  A = 12% | B = -1 | C = -1% | D = 2% | E = 2% | F = 16%
SMILES: CC1CCN(S(=O)(=O)c2ccc3c(c2)N(CC(=O)NC(C)c2ccccc2)C(=O)CS3)CC1 (stereo not drawn)
  A = . | B = . | C = . | D = . | E = -3% | F = 1%
SMILES: CC1CCN(S(=O)(=O)c2ccc3c(c2)N(CC(=O)NCc2cccnc2)C(=O)CS3)CC1
  A = 31% | B = -20 | C = -1% | D = 27µM* | E = 3% | F = ?
SMILES: O=C(CCl)c1cc2c3c(c1)CC(=O)N3CCC2
  A = -12% | B = -3 | C = 8% | D = 1.2µM* | E = 1% | F = ?
SMILES: COc1ccc(NC(=O)CSc2ccccc2)cc1S(=O)(=O)N1CCCCC1
  A = 0% | B = -2 | C = 23µM* | D = ? | E = -4% | F = -10%
SMILES: COc1cc(C)c(S(=O)(=O)N2CCCC2)cc1C(C)C
  A = -1% | B = 0 | C = -5% | D = 27µM* | E = -7% | F = -9%
SMILES: COc1ccc(Br)cc1S(=O)(=O)N1CCCC1
  A = -5% | B = ? | C = 0% | D = 3µM* | E = -2% | F = -9%
SMILES: COc1ccc(C)cc1S(=O)(=O)N1CCCCCC1
  A = 17% | B = 3 | C = -3% | D = 1% | E = -25% | F = -6%
SMILES: Cc1ccccc1-c1nnc(CN2CCN(c3cccc(C)c3C)CC2)o1
  A = . | B = . | C = . | D = . | E = -19% | F = -12%
SMILES: N#Cc1ccc(NCCNCC(=O)N2N=CCC2C#N)nc1 (stereo not drawn)
  A = . | B = . | C = . | D = . | E = 15% | F = -2%

High-throughput results deposited in PubChem BioAssay by National Center for Advancing Translational Sciences (NCATS).
